Test results published in BindingDB's records for patent US9062070 (Merck Sharp & Dohme, 2015).

Target: T1, ATP-sensitive inward rectifier potassium channel 1 (Rattus norvegicus, UniProt P35560)
T1 sequence (P35560 whole entry): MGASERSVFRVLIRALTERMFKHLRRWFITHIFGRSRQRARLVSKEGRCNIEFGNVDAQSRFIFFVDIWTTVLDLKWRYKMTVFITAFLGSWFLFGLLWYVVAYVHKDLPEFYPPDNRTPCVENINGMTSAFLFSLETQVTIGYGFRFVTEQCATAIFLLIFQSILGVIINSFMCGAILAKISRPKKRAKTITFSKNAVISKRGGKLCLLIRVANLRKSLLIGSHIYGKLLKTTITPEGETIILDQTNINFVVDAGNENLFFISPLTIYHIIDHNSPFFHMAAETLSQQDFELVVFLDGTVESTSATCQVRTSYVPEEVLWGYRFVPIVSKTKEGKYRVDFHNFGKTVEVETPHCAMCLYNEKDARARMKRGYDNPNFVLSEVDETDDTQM
Assay: Electrophysiology Assay
Conditions: pH 7.4

- IC50: 100 nM
Compound: C[C@@H]1Cc2cc([C@H]3CN4CCN(C(=O)C5CCc6nc(-n7cnnn7)ccc65)C[C@@H]4CO3)ccc2C(=O)O1 (single isomer, unassigned) [US9062070, 1C]
